The text below walks through data of patent publication US6566337B1, “Compounds with growth hormone releasing properties” (Novo Nordisk A/S, priority 1998, dated 2003).

SMILES strings stand for the structures.

One data set concerns carboxypeptidase Y and B. In words: Metabolic stability in carboxypeptidase mix (ESMS, SIM signal). As to conditions: carboxypeptidase Y and B in 50 mM ammoniumacetate pH 4.5, 37° C., 24 h, decrease in SIM signal.
Data set [1] concerns trypsin, chymotrypsin and elastase. Kind of data set: Metabolic stability in pancreatic enzyme mix (ESMS, SIM signal). The conditions noted are these: chymotrypsin and elastase in 100 mM ammoniumbicarbonate pH 8.0, 37° C., 24 h, decrease in SIM signal.

As for `CSCC[C@H](NC(=O)[C@H](CC(C)C)NC(=O)[C@H](Cc1c[nH]c2ccccc12)NC(=O)[C@H](CCC(N)=O)NC(=O)[C@@H](NC(=O)[C@H](Cc1ccccc1)NC(=O)[C@H](CC(=O)O)NC(=O)[C@H](CCC(N)=O)NC(=O)[C@H](C)NC(=O)[C@H](CCCN=C(N)N)NC(=O)[C@H](CCCN=C(N)N)NC(=O)[C@H](CO)NC(=O)[C@H](CC(=O)O)NC(=O)[C@H](CC(C)C)NC(=O)[C@H](Cc1ccc(O)cc1)NC(=O)[C@H](CCCCN)NC(=O)[C@H](CO)NC(=O)[C@H](Cc1ccc(O)cc1)NC(=O)[C@H](CC(=O)O)NC(=O)[C@H](CO)NC(=O)[C@@H](NC(=O)[C@H](Cc1ccccc1)NC(=O)[C@@H](NC(=O)CNC(=O)[C@H](CCC(N)=O)NC(=O)[C@H](CO)NC(=O)[C@@H](N)Cc1c[nH]cn1)[C@@H](C)O)[C@@H](C)O)C(C)C)C(=O)N[C@@H](CC(N)=O)C(=O)N[C@H](C(=O)O)[C@@H](C)O` [Glucagon], the “Carboxy-peptidase mix (stability)” value with carboxypeptidase Y and B was “− (Unstable (more than 20% decrease in SIM signal after 24 h in degradation solution))”. The “Pan. enzyme mix (stability)” value in data set [1] is given as “− (Unstable (more than 20% decrease in SIM signal after 24 h in degradation solution))”.
